Experimental data from ChEMBL document CHEMBL3259517, “Synthesis and evaluation of phosphorus containing, specific CDK9/CycT1 inhibitors” (J Med Chem, 2014).

By UniProt entry, the sequences of proteins in these tests, tags left out.
UniProt O60563, whole entry, looked up: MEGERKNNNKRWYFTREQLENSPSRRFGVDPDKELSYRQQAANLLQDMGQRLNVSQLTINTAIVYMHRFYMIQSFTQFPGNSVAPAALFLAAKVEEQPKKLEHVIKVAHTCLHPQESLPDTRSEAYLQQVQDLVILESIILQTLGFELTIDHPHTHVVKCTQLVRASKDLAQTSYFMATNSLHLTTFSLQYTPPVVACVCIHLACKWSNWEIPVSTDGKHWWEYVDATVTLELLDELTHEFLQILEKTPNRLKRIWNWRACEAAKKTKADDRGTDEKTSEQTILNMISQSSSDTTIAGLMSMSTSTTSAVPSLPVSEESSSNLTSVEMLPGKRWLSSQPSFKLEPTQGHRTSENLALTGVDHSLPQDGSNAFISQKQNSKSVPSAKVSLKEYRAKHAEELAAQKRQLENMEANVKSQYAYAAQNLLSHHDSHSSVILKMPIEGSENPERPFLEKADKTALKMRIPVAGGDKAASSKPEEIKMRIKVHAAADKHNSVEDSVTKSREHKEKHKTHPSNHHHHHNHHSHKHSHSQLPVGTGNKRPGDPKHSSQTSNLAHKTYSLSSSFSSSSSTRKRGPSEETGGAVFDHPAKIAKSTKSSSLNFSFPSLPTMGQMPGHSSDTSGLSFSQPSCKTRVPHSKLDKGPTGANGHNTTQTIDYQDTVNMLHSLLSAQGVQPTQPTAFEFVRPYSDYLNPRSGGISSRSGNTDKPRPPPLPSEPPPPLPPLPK
UniProt P50750, whole entry, looked up: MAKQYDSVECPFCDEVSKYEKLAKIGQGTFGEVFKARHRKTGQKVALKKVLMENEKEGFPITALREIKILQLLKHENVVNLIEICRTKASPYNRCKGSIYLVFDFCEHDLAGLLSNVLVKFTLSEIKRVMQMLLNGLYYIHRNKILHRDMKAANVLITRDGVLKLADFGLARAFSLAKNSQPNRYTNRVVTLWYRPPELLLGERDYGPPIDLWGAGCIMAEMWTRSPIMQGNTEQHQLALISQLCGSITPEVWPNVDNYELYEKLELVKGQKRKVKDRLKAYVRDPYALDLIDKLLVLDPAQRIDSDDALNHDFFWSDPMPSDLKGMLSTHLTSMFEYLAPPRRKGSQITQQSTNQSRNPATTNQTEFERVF

target: CDK9/cyclin T1 (Homo sapiens, UniProt O60563+P50750)

Q: With `CCOP(=O)(CC)Oc1cccc(Nc2cc(-c3cccc(N)c3)ncn2)c1` (configuration not stated) as the compound, how does the IC50 read?
A: 1800 nM

Q: For `CCOP(=O)(CC)Oc1ccc(Nc2cc(-c3cccc(N)c3)ncn2)cc1` (configuration not stated), which IC50 is on record?
A: 3840 nM

Q: Which IC50 does the source give for `CCCP(=O)(Nc1cc(Nc2cc(-c3ccccc3OC)ncn2)ccc1C)OC(C)C` (configuration not stated) here?
A: 3170 nM

Q: Which IC50 does the source give for `CCOP(=O)(CC)Oc1cc(Nc2cc(-c3cccc([N+](=O)[O-])c3)ncn2)ccc1C` (configuration not stated) here?
A: > 10000 nM

Q: With `CCCP(=O)(Oc1ccc(Nc2cc(-c3cccc([N+](=O)[O-])c3)ncn2)cc1)OC(C)C` (configuration not stated) as the compound, how does the IC50 read?
A: > 10000 nM

Q: How did the IC50 turn out when `CCOP(=O)(CC)Oc1cccc(Nc2cc(-c3cccc([N+](=O)[O-])c3)ncn2)c1` (configuration not stated) was run?
A: > 10000 nM

Q: Which IC50 does the source give for `CCCP(=O)(Oc1cccc(Nc2cc(-c3cccc(N)c3)ncn2)c1)OC(C)C` (configuration not stated) here?
A: 6430 nM

Q: For `CCOP(=O)(CC)Oc1ccc(Nc2cc(-c3ccccc3OC)ncn2)cc1` (configuration not stated), which IC50 is on record?
A: 360 nM

Q: With `CCOP(=O)(CC)Oc1cc(Nc2cc(-c3cccc(N)c3)ncn2)ccc1C` (configuration not stated) as the compound, how does the IC50 read?
A: 870 nM

Q: For `CCCP(=O)(Oc1cccc(Nc2cc(-c3ccccc3OC)ncn2)c1)OC(C)C` (configuration not stated), which IC50 is on record?
A: 1180 nM

Q: Which IC50 does the source give for `CCCP(=O)(O)Oc1cc(Nc2cc(-c3ccccc3OC)ncn2)ccc1C` here?
A: 1460 nM

Q: For `CCCP(=O)(Oc1cc(Nc2cc(-c3cccc([N+](=O)[O-])c3)ncn2)ccc1C)OC(C)C` (configuration not stated), which IC50 is on record?
A: > 10000 nM

Q: For `CCCP(=O)(Oc1ccc(Nc2cc(-c3ccccc3OC)ncn2)cc1)OC(C)C` (configuration not stated), which IC50 is on record?
A: 407 nM

Q: `CCP(=O)(O)Oc1cc(Nc2cc(-c3ccccc3OC)ncn2)ccc1C` was tested. Which IC50 did it give?
A: 1490 nM

Q: `CCOP(=O)(CC)Oc1ccc(Nc2cc(-c3cccc([N+](=O)[O-])c3)ncn2)cc1` (configuration not stated) was tested. Which IC50 did it give?
A: > 10000 nM

Q: With `CCOP(=O)(CC)Oc1cc(Nc2cc(-c3ccccc3OC)ncn2)ccc1C` (configuration not stated) as the compound, how does the IC50 read?
A: 813 nM

Q: How did the IC50 turn out when `CCOP(=O)(CC)Oc1cccc(Nc2cc(-c3ccccc3OC)ncn2)c1` (configuration not stated) was run?
A: 400 nM

Q: For `CCOP(=O)(CC)Nc1cc(Nc2cc(-c3ccccc3OC)ncn2)ccc1C` (configuration not stated), which IC50 is on record?
A: 1450 nM

Q: For `CCCP(=O)(Oc1cc(Nc2cc(-c3ccccc3OC)ncn2)ccc1C)OC(C)C` (configuration not stated), which IC50 is on record?
A: 3060 nM

Q: With `CCCP(=O)(Oc1cc(Nc2cc(-c3cccc(N)c3)ncn2)ccc1C)OC(C)C` (configuration not stated) as the compound, how does the IC50 read?
A: 5380 nM

Q: How did the IC50 turn out when `CCCP(=O)(Oc1ccc(Nc2cc(-c3cccc(N)c3)ncn2)cc1)OC(C)C` (configuration not stated) was run?
A: 6060 nM

Q: For `CCCP(=O)(Oc1cccc(Nc2cc(-c3cccc([N+](=O)[O-])c3)ncn2)c1)OC(C)C` (configuration not stated), which IC50 is on record?
A: > 10000 nM
